{"sequences": {"note": "Amino acid sequences for entries named in this document (tags omitted). A change or cut given only in a name is not applied to a line headed by its entry.", "UniProt O00329": "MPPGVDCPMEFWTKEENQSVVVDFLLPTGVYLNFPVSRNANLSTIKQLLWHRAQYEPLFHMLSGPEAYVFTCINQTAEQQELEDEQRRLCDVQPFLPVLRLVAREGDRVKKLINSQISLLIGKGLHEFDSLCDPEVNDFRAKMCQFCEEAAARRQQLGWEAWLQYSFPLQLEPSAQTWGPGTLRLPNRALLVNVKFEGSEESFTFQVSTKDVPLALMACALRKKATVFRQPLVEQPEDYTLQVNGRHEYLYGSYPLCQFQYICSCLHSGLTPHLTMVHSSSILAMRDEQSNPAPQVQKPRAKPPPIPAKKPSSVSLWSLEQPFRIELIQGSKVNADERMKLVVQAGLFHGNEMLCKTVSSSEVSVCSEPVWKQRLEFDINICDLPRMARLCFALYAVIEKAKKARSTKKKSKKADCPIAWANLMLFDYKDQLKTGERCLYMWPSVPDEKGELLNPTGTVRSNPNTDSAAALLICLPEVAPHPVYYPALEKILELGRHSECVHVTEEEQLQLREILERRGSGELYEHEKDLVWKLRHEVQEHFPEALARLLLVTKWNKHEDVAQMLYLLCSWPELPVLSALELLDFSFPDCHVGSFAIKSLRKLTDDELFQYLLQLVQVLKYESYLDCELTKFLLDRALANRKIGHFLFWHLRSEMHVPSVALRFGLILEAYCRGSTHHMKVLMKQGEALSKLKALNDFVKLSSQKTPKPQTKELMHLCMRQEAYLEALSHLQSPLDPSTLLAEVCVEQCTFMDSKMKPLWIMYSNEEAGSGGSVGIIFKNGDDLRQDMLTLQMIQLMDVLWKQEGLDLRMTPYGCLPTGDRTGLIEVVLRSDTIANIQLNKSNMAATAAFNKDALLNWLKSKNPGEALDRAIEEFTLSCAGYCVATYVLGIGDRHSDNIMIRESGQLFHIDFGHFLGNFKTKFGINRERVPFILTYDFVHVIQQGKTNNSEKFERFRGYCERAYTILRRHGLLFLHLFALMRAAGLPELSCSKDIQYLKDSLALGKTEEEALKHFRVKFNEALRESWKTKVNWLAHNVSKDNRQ"}, "source": "patent US11618753B2", "about": "(priority 2018, dated 2023)", "target": "GST-tagged PIK3Cδ in complex with PIK3R1 (Homo sapiens (Human), UniProt O00329)", "assay": "biochemical", "data": [{"smiles": "COc1c(F)cc(-c2cc(C(F)(F)F)c3c(N)ncnn23)cc1C(=O)N[C@@H]1CN(C(=O)[C@@](C)(O)C(F)(F)F)C[C@@H]1F", "note": "[Example 686, 5-[4-amino-5-(trifluoromethyl)pyrrolo[2,1-f][1,2,4]triazin-7-yl]-3-fluoro-N-[(3R,4S)-4-fluoro-1-[(28)-3,3,3-trifluoro-2-hydroxy-2-methylpropanoyl]pyrrolidin-3-yl]-2-methoxybenzamide]", "values": [{"measurement": "IC50", "result": "> 15000", "unit": "nM"}]}, {"smiles": "COc1c(F)cc(-c2cc(C(F)(F)F)c3c(N)ncnn23)cc1C(=O)N[C@@H]1CN(C(=O)CC(O)(C(F)(F)F)C(F)(F)F)C[C@@H]1F", "note": "[Example 690, 5-[4-amino-5-(trifluoromethyl)pyrrolo[2,1-f][1,2,4]triazin-7-yl]-3-fluoro-N-[(3R,4S)-4-fluoro-1-[4,4,4-trifluoro-3-hydroxy-3-(trifluoromethyl)butanoyl]pyrrolidin-3-yl]-2-methoxybenzamide]", "values": [{"measurement": "IC50", "result": 13200, "unit": "nM"}]}, {"smiles": "Cc1cc(-c2cc(C(F)(F)F)c3c(N)ncnn23)cc(C(=O)N[C@@H]2CN(C(=O)CC(O)(C(F)(F)F)C(F)(F)F)C[C@@H]2F)c1Cl", "note": "[Example 702, 5-[4-amino-5-(trifluoromethyl)pyrrolo[2,1-f][1,2,4]triazin-7-yl]-2-chloro-N-[(3R,4S)-4-fluoro-1-[4,4,4-trifluoro-3-hydroxy-3-(trifluoromethyl)butanoyl]pyrrolidin-3-yl]-3-methylbenzamide]", "values": [{"measurement": "IC50", "result": 1740, "unit": "nM"}]}, {"smiles": "CCc1ccc(-c2cc(C(F)(F)F)c3c(N)ncnn23)c(F)c1C(=O)N[C@@H]1CN(C(=O)C2CC(F)(F)C2)C[C@@H]1F", "note": "[Example 741, 3-[4-amino-5-(trifluoromethyl)pyrrolo[2,1-f][1,2,4]triazin-7-yl]-N-[(3R,4S)-1-(3,3-difluorocyclobutanecarbonyl)-4-fluoropyrrolidin-3-yl]-6-ethyl-2-fluorobenzamide]", "values": [{"measurement": "IC50", "result": 580, "unit": "nM"}]}, {"smiles": "CCC(O)(C(=O)N1C[C@H](F)[C@H](NC(=O)c2cc(-c3cc(C(F)(F)F)c4c(N)ncnn34)c(F)cc2F)C1)C(F)(F)F", "note": "(stereo partly drawn) [Example 781, 5-[4-amino-5-(trifluoromethyl)pyrrolo[2,1-f][1,2,4]triazin-7-yl]-2,4-difluoro-N-[(3R,4S)-4-fluoro-1-[2-hydroxy-2-(trifluoromethyl)butanoyl]pyrrolidin-3-yl]benzamide]", "values": [{"measurement": "IC50", "result": 2050, "unit": "nM"}]}, {"smiles": "Nc1ncnn2c(-c3cc(C(=O)N[C@@H]4CN(C(=O)CC(C(F)(F)F)C(F)(F)F)C[C@@H]4F)c(F)cc3F)cc(C(F)(F)F)c12", "note": "[Example 783, 5-[4-amino-5-(trifluoromethyl)pyrrolo[2,1-f][1,2,4]triazin-7-yl]-2,4-difluoro-N-[(3R,4S)-4-fluoro-1-[4,4,4-trifluoro-3-(trifluoromethyl)butanoyl]pyrrolidin-3-yl]benzamide]", "values": [{"measurement": "IC50", "result": 686, "unit": "nM"}]}, {"smiles": "C[C@@](O)(C(=O)N1C[C@H](F)[C@H](NC(=O)c2cc(-c3cc(C(F)(F)F)c4c(N)ncnn34)c(F)cc2F)C1)C(F)(F)F", "note": "[Example 790, 5-[4-amino-5-(trifluoromethyl)pyrrolo[2,1-f][1,2,4]triazin-7-yl]-2,4-difluoro-N-[(3R,4S)-4-fluoro-1-[(2R)-3,3,3-trifluoro-2-hydroxy-2-methylpropanoyl]pyrrolidin-3-yl]benzamide]", "values": [{"measurement": "IC50", "result": 1090, "unit": "nM"}]}, {"smiles": "Cc1cc(F)c(-c2cc(C(F)(F)F)c3c(N)ncnn23)cc1C(=O)N[C@@H]1CN(C(=O)c2cscn2)C[C@@H]1F", "note": "[Example 833, 5-[4-amino-5-(trifluoromethyl)pyrrolo[2,1-f][1,2,4]triazin-7-yl]-4-fluoro-N-[(3R,4S)-4-fluoro-1-(1,3-thiazole-4-carbonyl)pyrrolidin-3-yl]-2-methylbenzamide]", "values": [{"measurement": "IC50", "result": 974, "unit": "nM"}]}, {"smiles": "Cc1cccc(C(=O)N2C[C@H](F)[C@H](NC(=O)c3cc(-c4cc(C(F)(F)F)c5c(N)ncnn45)c(F)cc3C)C2)n1", "note": "[Example 842, 5-[4-amino-5-(trifluoromethyl)pyrrolo[2,1-f][1,2,4]triazin-7-yl]-4-fluoro-N-[(3R,4S)-4-fluoro-1-(6-methylpyridine-2-carbonyl)pyrrolidin-3-yl]-2-methylbenzamide]", "values": [{"measurement": "IC50", "result": 1180, "unit": "nM"}]}, {"smiles": "Nc1ncnn2c(-c3cc(C(=O)N[C@@H]4CN(C(=O)CC(O)(C(F)(F)F)C(F)(F)F)C[C@@H]4F)c(Cl)cc3F)cc(C(F)(F)F)c12", "note": "[Example 885, 5-[4-amino-5-(trifluoromethyl)pyrrolo[2,1-f][1,2,4]triazin-7-yl]-2-chloro-4-fluoro-N-[(3R,4S)-4-fluoro-1-[4,4,4-trifluoro-3-hydroxy-3-(trifluoromethyl)butanoyl]pyrrolidin-3-yl]benzamide]", "values": [{"measurement": "IC50", "result": 529, "unit": "nM"}]}, {"smiles": "Nc1ncnn2c(-c3cc(C(=O)N[C@@H]4CN(C(=O)C5CC(F)C5)C[C@@H]4F)c(Cl)cc3F)cc(C(F)(F)F)c12", "note": "(stereo partly drawn) [Example 888, 5-[4-amino-5-(trifluoromethyl)pyrrolo[2,1-f][1,2,4]triazin-7-yl]-2-chloro-4-fluoro-N-[(3R,4S)-4-fluoro-1-(3-fluorocyclobutanecarbonyl)pyrrolidin-3-yl]benzamide]", "values": [{"measurement": "IC50", "result": 487, "unit": "nM"}]}, {"smiles": "Nc1ncnn2c(-c3ccc(C(F)(F)F)c(C(=O)N[C@@H]4CN(C(=O)c5ccccc5F)C[C@@H]4F)c3)cc(C(F)(F)F)c12", "note": "[Example 906, 5-[4-amino-5-(trifluoromethyl)pyrrolo[2,1-f][1,2,4]triazin-7-yl]-N-[(3R,4S)-4-fluoro-1-(2-fluorobenzoyl)pyrrolidin-3-yl]-2-(trifluoromethyl)benzamide]", "values": [{"measurement": "IC50", "result": 443, "unit": "nM"}]}, {"smiles": "C[C@@](O)(C(=O)N1C[C@H](F)[C@H](NC(=O)c2cc(-c3cc(C(F)(F)F)c4c(N)ncnn34)ccc2CF)C1)C(F)(F)F", "note": "[Example 910, 5-[4-amino-5-(trifluoromethyl)pyrrolo[2,1-f][1,2,4]triazin-7-yl]-N-[(3R,4S)-4-fluoro-1-[(2R)-3,3,3-trifluoro-2-hydroxy-2-methylpropanoyl]pyrrolidin-3-yl]-2-(fluoromethyl)benzamide]", "values": [{"measurement": "IC50", "result": 200, "unit": "nM"}]}, {"smiles": "Nc1ncnn2c(-c3ccc(CF)c(C(=O)N[C@@H]4CN(C(=O)C5CC(F)(F)C5)C[C@@H]4F)c3)cc(C(F)(F)F)c12", "note": "[Example 911, 5-[4-amino-5-(trifluoromethyl)pyrrolo[2,1-f][1,2,4]triazin-7-yl]-N-[(3R,4S)-1-(3,3-difluorocyclobutanecarbonyl)-4-fluoropyrrolidin-3-yl]-2-(fluoromethyl)benzamide]", "values": [{"measurement": "IC50", "result": 35, "unit": "nM"}]}, {"smiles": "Nc1ncnn2c(-c3ccc(CF)c(C(=O)N[C@@H]4CN(C(=O)CC(O)(C(F)(F)F)C(F)(F)F)C[C@@H]4F)c3)cc(C(F)(F)F)c12", "note": "[Example 912, 5-[4-amino-5-(trifluoromethyl)pyrrolo[2,1-f][1,2,4]triazin-7-yl]-N-[(3R,4S)-4-fluoro-1-[4,4,4-trifluoro-3-hydroxy-3-(trifluoromethyl)butanoyl]pyrrolidin-3-yl]-2-(fluoromethyl)benzamide]", "values": [{"measurement": "IC50", "result": 553, "unit": "nM"}]}, {"smiles": "Nc1ncnn2c(-c3ccc(CF)c(C(=O)N[C@@H]4CN(C(=O)C5CCC(F)(F)CC5)C[C@@H]4F)c3)cc(C(F)(F)F)c12", "note": "[Example 918, 5-[4-amino-5-(trifluoromethyl)pyrrolo[2,1-f][1,2,4]triazin-7-yl]-N-[(3R,4S)-1-(4,4-difluorocyclohexanecarbonyl)-4-fluoropyrrolidin-3-yl]-2-(fluoromethyl)benzamide]", "values": [{"measurement": "IC50", "result": 44, "unit": "nM"}]}, {"smiles": "Nc1ncnn2c(-c3ccc(Cl)c(C(=O)N[C@@H]4CN(C(=O)CC(O)(C(F)(F)F)C(F)(F)F)C[C@@H]4F)c3)cc(C(F)(F)F)c12", "note": "[Example 931, 5-[4-amino-5-(trifluoromethyl)pyrrolo[2,1-f][1,2,4]triazin-7-yl]-2-chloro-N-[(3R,4S)-4-fluoro-1-[4,4,4-trifluoro-3-hydroxy-3-(trifluoromethyl)butanoyl]pyrrolidin-3-yl]benzamide]", "values": [{"measurement": "IC50", "result": 558, "unit": "nM"}]}, {"smiles": "CCc1ccc(-c2cc(C(F)(F)F)c3c(N)ncnn23)cc1C(=O)N[C@@H]1CN(C(=O)C2CC(F)(F)C2)C[C@@H]1F", "note": "[Example 968, 5-[4-amino-5-(trifluoromethyl)pyrrolo[2,1-f][1,2,4]triazin-7-yl]-N-[(3R,4S)-1-(3,3-difluorocyclobutanecarbonyl)-4-fluoropyrrolidin-3-yl]-2-ethylbenzamide]", "values": [{"measurement": "IC50", "result": 195, "unit": "nM"}]}, {"smiles": "Cc1ccc(-c2cc(C(F)(F)F)c3c(N)ncnn23)cc1C(=O)N[C@@H]1CN(C(=O)C2CC(F)(F)C2)C[C@@H]1F", "note": "[Example 986, 5-[4-amino-5-(trifluoromethyl)pyrrolo[2,1-f][1,2,4]triazin-7-yl]-N-[(3R,4S)-1-(3,3-difluorocyclobutanecarbonyl)-4-fluoropyrrolidin-3-yl]-2-methylbenzamide]", "values": [{"measurement": "IC50", "result": 1170, "unit": "nM"}]}, {"smiles": "Cc1ccc(-c2cc(C(F)(F)F)c3c(N)ncnn23)cc1C(=O)N[C@@H]1CN(C(=O)CC(O)(C(F)(F)F)C(F)(F)F)C[C@@H]1F", "note": "[Example 994, 5-[4-amino-5-(trifluoromethyl)pyrrolo[2,1-f][1,2,4]triazin-7-yl]-N-[(3R,4S)-4-fluoro-1-[4,4,4-trifluoro-3-hydroxy-3-(trifluoromethyl)butanoyl]pyrrolidin-3-yl]-2-methylbenzamide]", "values": [{"measurement": "IC50", "result": 553, "unit": "nM"}]}, {"smiles": "Cc1ccc(-c2cc(C(F)(F)F)c3c(N)ncnn23)cc1C(=O)N[C@@H]1CN(C(=O)C(C)(C)F)C[C@@H]1F", "note": "[Example 1000, 5-[4-amino-5-(trifluoromethyl)pyrrolo[2,1-f][1,2,4]triazin-7-yl]-N-[(3R,4S)-4-fluoro-1-(2-fluoro-2-methylpropanoyl)pyrrolidin-3-yl]-2-methylbenzamide]", "values": [{"measurement": "IC50", "result": 306, "unit": "nM"}]}, {"smiles": "Nc1ncnn2c(-c3ccc(OC(F)F)c(C(=O)N[C@@H]4CN(C(=O)CC(C(F)(F)F)C(F)(F)F)C[C@@H]4F)c3)cc(C(F)(F)F)c12", "note": "[Example 1081, 5-[4-amino-5-(trifluoromethyl)pyrrolo[2,1-f][1,2,4]triazin-7-yl]-2-(difluoromethoxy)-N-[(3R,4S)-4-fluoro-1-[4,4,4-trifluoro-3-(trifluoromethyl)butanoyl]pyrrolidin-3-yl]benzamide]", "values": [{"measurement": "IC50", "result": 141, "unit": "nM"}]}, {"smiles": "Nc1ncnn2c(-c3ccc(OC(F)F)c(C(=O)N[C@@H]4CN(C(=O)CC(O)(C(F)(F)F)C(F)(F)F)C[C@@H]4F)c3)cc(C(F)(F)F)c12", "note": "[Example 1088, 5-[4-amino-5-(trifluoromethyl)pyrrolo[2,1-f][1,2,4]triazin-7-yl]-2-(difluoromethoxy)-N-[(3R,4S)-4-fluoro-1-[4,4,4-trifluoro-3-hydroxy-3-(trifluoromethyl)butanoyl]pyrrolidin-3-yl]benzamide]", "values": [{"measurement": "IC50", "result": 558, "unit": "nM"}]}]}
